Tested on: MC38 cells
Assay: IL-2 and anti-PD-1 therapy in March5+/f and March5+/f:Vav1-Cre mice bearing MC38 tumors
Assay type: in vivo
Conditions: IL-2 50000 IU per mouse i.p.
Experimental: March5^+/f and March5^+/f:Vav1-Cre mice were subcutaneously injected with MC38 cells (5×10^5). On day 5 after tumor cell inoculation, mice were intraperitoneally injected with control, IL-2 (50000 IU per mouse) or anti-PD-1 (100 μg per mouse). Tumor sizes were measured every two days by caliper from day 5. WT: March5^+/f, CHZ: March5^+/f:Vav1-Cre. […] Data were analyzed using two-way ANOVA with GraphPad Prism 8.
March5^+/f and March5^+/f:Vav1-Cre mice were subcutaneously injected with MC38 cells (5×10^5). On day 5 after tumor cell inoculation, mice were intraperitoneally injected with control, IL-2 (50000 IU per mouse) or anti-PD-1 (100 μg per mouse). Mice were sacrificed when the tumor size is bigger than 15 mm of the mean tumor diameter, tumor volume exceeded 2000 mm^3, or tumor had ulcers with diameter reached 10 mm. Statistical analysis was performed using the GraphPad Prism 8 software, n=8. Kaplan-Meier survival curves and corresponding log-rank (Mantel-Cox) tests were used to evaluate the statistical differences between groups in survival studies. […]
IL-2 and anti-PD-1 therapy in March5^+/f and March5^+/f:Vav1-Cre mice: mice were intraperitoneally injected with control, IL-2 (50000 IU per mouse, dissolved in PBS) or anti-PD-1 (100 μg per mouse, dissolved in PBS) five days after inoculation of MC38 cells. Tumor size and mouse survival were measured every two days from day 5. […]

Substance: IL-2: human IL-2 (SL Pharm), γc family cytokine
- suppression of tumor growth and overall survival, March5+/f:Vav1-Cre versus March5+/f mice: increased efficacy in suppression of tumor growth and improvement of the overall survival

From patent US20260216168A1, “MODULATION OF PD-1 SIGNALING FOR TREATMENT OF DISEASES” (Wuhan University, priority 2023, published 2026)
